Experimental data published in publication PMC5059467, “Anti-tubulin drugs conjugated to anti-ErbB antibodies selectively radiosensitize” (Nature Communications, 2016).

What was measured:
CALU3 cells [1] = test: Alamar blue cell viability, CALU3 cells; format: cell-based, human; conditions: 96 hours
EGFR+ tumour xenografts = test: Immunohistochemistry of EGFR+ tumour xenografts (pS10 Histone H3); format: in vivo, mice; conditions: tumours harvested 24 h after injection
Procedure: (§1) Tissue sections were cut from blocks of formalin-fixed paraffin embedded xenografts. Four micron thick tissue sections were stained with antibodies to phospho-histone H3 (pH3, Abcam, catalogue number ab32107) and cleaved caspase-3 (ClC3, Cell Signaling Technology, catalogue number 9661) and used at dilutions of 1:300 and 1:900, respectively. Slides were stained on a Ventana Discovery Ultra (Ventana Medical Systems, Tucson, AZ, USA). Antigen retrieval was performed using CC1 for 24–40 min at 95 °C. The primary antibodies were incubated on the sections for 1 h at 37 °C. Primary antibodies were visualized used DAB as a chromagen using the UltraMap system (Ventana Medical systems) followed by hematoxylin as a counterstain. Slides were rinsed, dehydrated through alcohol and xylene and coverslipped.

LN229 cells = test: Neutral comet assay after IR, LN229 cells; format: cell-based, human; conditions: 20 nM overnight, 6 Gy, low EGFR binding LN229
Procedure: (§2) Cells were treated with indicated times doses of MMAE, mertansine, cetuximab, cetuximab-MMAE, trastuzumab, trastuzumab-MMAE or T-DM1 overnight, and then irradiated with 6 Gy. Cells were collected 15 min post IR, suspended in agarose gel and lysed per assay directions (Trevigen). Samples underwent electrophoresis under neutral conditions and were then stained with Sybr Green. Comet tails were counted in multiple fields (>60 cells per sample) and analysed using CometScore (TriTek Corp). Comet tail length was normalized to vehicle-treated, non-irradiated cells.

CAL-27 cells [2] = test: Neutral comet assay after IR, CAL-27 cells; format: cell-based, human; conditions: 0.5 nM overnight, 6 Gy, compared with irradiated vehicle
Procedure: as §2

CAL-27 cells [3] = test: Cell cycle profile (propidium iodide, flow cytometry), CAL-27 cells; format: cell-based, human; conditions: overnight treatment
Procedure: Cells were treated with MMAE, mertansine, cetuximab or cetuximab-MMAE, trastuzumab, trastuzumab-MMAE or T-DM1 for 24 h and then fixed in methanol. Cells were treated with RNAse, stained with propidium iodide (PI) and analysed by FACS using FloJo software.

CALU3 cells [4] = test: Neutral comet assay after IR, CALU3 cells; format: cell-based, human; conditions: 2 nM overnight, 6 Gy, compared with vehicle or 20 nM antibody
Procedure: as §2

CAL-27 tumour xenografts = test: CAL-27 tumour xenograft growth with or without IR; format: in vivo, mice
Procedure: (§3) CAL-27, OE19, NCI N87 and HCT116 tumour xenografts were established and tumour growth was measured with digital calipers. Tumour volume was measured blindly to treatment group and calculated using the formula as ½ × length × width^2. Mice were randomized into groups once the average tumour volume reached >100 mm^3. Mice were assigned to indicated groups in ‘Results'. […] For irradiated mice, the tumour-bearing hindlimbs were focally irradiated while the remainder of the mouse was shielded from IR with custom designed lead blocking >95% of the dose as verified by dosimeters placed on the mouse. Free MMAE was injected on an equimolar basis to C-MMAE in final volume of 3% DMSO. Drug doses and IR fractionation are as indicated in ‘Results'. To prevent unnecessary morbidity, mice were killed if tumour length exceeded 15 mm per protocol. Nonlinear regression least squares fit was used to calculate tumour volume doubling times. Tumour doubling times were extrapolated for T-DM1+IR groups where tumour doubling was been achieved. To minimize the number of mice used, tumours were grown in the bilateral flanks. For CAL-27 tumour xenografts in experiment Fig. 4f, the number of mice and tumours per group were: control (5 mice, 10 tumours), IR (5 mice, 10 tumours), MMAE (4 mice, 8 tumours) MMAE+IR (5 mice, 10 tumours), cetuximab (5 mice, 10 tumours), cetuximab+IR (5 mice, 10 tumours), C-MMAE (4 mice, 8 tumours), C-MMAE+IR (5 mice, 10 tumours). For CAL-27 tumour xenografts in experiment Fig. 4g, the number of mice and tumours per group were: control (4 mice, 8 tumours), IR (5 mice, 10 tumours), cetuximab+MMAE (5 mice, 10 tumours) cetuximab+MMAE+IR (5 mice, 10 tumours), C-MMAE (5 mice, 10 tumours), C-MMAE+IR (5 mice, 10 tumours). […] For OE19 tumour xenografts in experiment Fig. 5d,e and Table 1, the number of mice and tumours per group were: control (5 mice, 10 tumours), IR (5 mice, 10 tumours), trastuzumab (5 mice, 10 tumours), trastuzumab+IR (5 mice, 10 tumours), T-DM1 (5 mice, 10 tumours) and T-DM1+IR (5 mice, 10 tumours). For NCI N87 tumour xenografts in experiment Fig. 5d,e and Table 1, the number of mice and tumours per group were: control (2 mice, 4 tumours), IR (3 mice, 6 tumours), trastuzumab (3 mice, 6 tumours), trastuzumab+IR (4 mice, 8 tumours), T-DM1 3 mice, 6 tumours) and T-DM1+ IR (4 mice, 8 tumours). For HCT116 tumour xenografts in experiment Fig. 5d,e and Table 1, the number of mice and tumours per group were: control (3 mice, 6 tumours), IR (4 mice, 8 tumours), trastuzumab (3 mice, 6 tumours), trastuzumab+IR (3 mice, 6 tumours), T-DM1 (3 mice, 6 tumours) and T-DM1+ IR (4 mice, 8 tumours).

CAL-27 cells [5] = test: ADC cell surface binding (Cy5, flow cytometry), CAL-27 cells; parameters: species or system human; conditions: Cy5-labelled ADC, on ice, increasing concentrations
Procedure: (§4) Cells were collected and resuspended in cold PBS with 5% BSA. Cy5-labelled cetuximab-MMAE or trastuzumab-MMAE was added to the cells at indicated concentrations for 15 min on ice. Cells were washed, resuspended in PBS with 5% BSA and 0.5 μg ml^−1 propidium iodide, and analysed by flow cytometry.

EGFR expressing tumours = test: In vivo Cy5 optical imaging of EGFR expressing tumour xenografts; parameters: species or system mice; conditions: 0.5 nmol Cy5-labelled C-MMAE i.v.
Procedure: (§5) All animal work was done in compliance with the University of California San Diego Institutional Animal Use and Care Committee. Six-to-eight-week-old female athymic nu/nu mice purchased from the University of California San Diego Animal Care Program breeding colony were injected subcutaneously into the bilateral upper thighs with 5 × 10^6 CAL-27, SQ9-G, SCC-35, SCC-61, A549, HCT-116, OE19 or LN229 tumour cells in a 1:1 Matrigel (BD) and PBS solution. After tumours grew to >100 mm^3 they were injected with 0.5 nmol of Cy-labelled cetuximab-MMAE, trastuzumab-MMAE (∼4 and ∼3.9 mg kg^−1, respectively) as described above. For imaging, mice were anaesthetized (1:1 mixture of 100 mg ml^−1 of ketamine and 5 mg ml^−1 of midazolam). Animals were imaged using a Maestro Small Animal Imager (CRI) with excitation filter of 620/22 and 645 nm long-pass emission filter with dichroic filter tuned to 670 nm. Imaging was done both with skin on and after skin removal to decrease autofluorescence and scattering. […] At various time points after injection, the tail was pricked and a small volume (5–10 μl) of blood was collected in a heparinized hematocrit tube. Fluorescent images were taken using the Maestro, with the filters mentioned above, and the integrated fluorescent intensity was measured using Image J.

CAL-27 cells [6] = test: Clonogenic cell survival (SF2), CAL-27 cells; format: cell-based, human; conditions: drug overnight then 2 Gy, compared with vehicle
Procedure: Cells were treated with MMAE, mertansine, cetuximab or cetuximab-MMAE for 24 h and then irradiated with 2 Gy. Following IR, cells were counted, re-plated at varying cell numbers in drug-free media. 10–14 days after initial seeding formed colonies were methanol fixed, stained with crystal violet and counted. Surviving fraction at 2 Gy (SF2) was calculated as the fraction of cells surviving 2 Gy compared with non-irradiated cells.

OE19 cells [7] = test: Cell cycle profile (propidium iodide, flow cytometry), OE19 cells; format: cell-based, human; conditions: overnight treatment
Procedure: Cells were treated with RNAse, stained with propidium iodide (PI) and analysed by FACS using FloJo software.

OE19 cells [8] = test: Neutral comet assay after IR, OE19 cells; format: cell-based, human; conditions: 2 nM overnight, 6 Gy, compared with vehicle, 20 nM antibody or 2 nM C-MMAE
Procedure: as §2

[9] = Blood clearance by Cy5 fluorescence; format: in vivo, mice; conditions: 5 nmol, Cy5-labelled
Procedure: as §5

OE19 tumours [10] = test: In vivo Cy5 optical imaging of OE19 tumour xenografts; parameters: species or system mice; conditions: 0.5 nmol i.v., imaged 48 h later, HER2+ tumours
Procedure: as §5

OE19 tumour xenografts = test: OE19 tumour xenograft growth with or without IR; format: in vivo, mice; conditions: single dose of 1 nmol, by day 14
Procedure: as §3, with “For NCI N87 tumour xenografts in experiment Fig. 5d,e and Table 1, the number of mice and tumours per group were: control (2 mice, 4 tumours), IR (3 mice, 6 tumours), trastuzumab (3 mice, 6 tumours), trastuzumab+IR (4 mice, 8 tumours), T-DM1 3 mice, 6 tumours) and T-DM1+ IR (4 mice, 8 tumours). For HCT116 tumour xenografts in experiment Fig. 5d,e and Table 1, the number of mice and tumours per group were: control (3 mice, 6 tumours), IR (4 mice, 8 tumours), trastuzumab (3 mice, 6 tumours), trastuzumab+IR (3 mice, 6 tumours), T-DM1 (3 mice, 6 tumours) and T-DM1+ IR (4 mice, 8 tumours).” left out

OE19 tumours [11] = test: Immunohistochemistry of OE19 tumour xenografts (pS10 Histone H3, cleaved caspase 3); format: in vivo, mice; conditions: 0.5 nmol Cy5-labelled ADC i.v.
Procedure: as §1
Immunostained slides were scanned using an Axio Scan.Z1 (Zeiss; Oberkochen, Germany). […] Whole-slide images were imported into Definiens Software for quantitative analysis (Definiens; Munich, Germany). […] For analysis of pH3 (a nuclear stain), the total number of nuclei and the total number of nuclei showing DAB staining (pH3 positive cells) were recorded within each ROI. The percent of positive nuclei was then calculated for each sample. For analysis of ClC3 (a cytoplasmic stain), mean DAB chromagen intensity was measured and calculated within the ROI for each sample.

[12] = tested on: HER2 expressing cell lines, OE19, CALU3, and BT474; test: ADC cell surface binding (Cy5, flow cytometry), HER2 expressing cell lines; parameters: species or system human; conditions: Cy5-labelled ADC, on ice, increasing concentrations
Procedure: as §4

Substance: C-MMAE: monomethyl auristatin E conjugated to cetuximab via maleimidocaproyl-valine-citrulline-PABA linker, Cy5-labelled, ∼3.7 MMAE per antibody
- cytotoxicity of C-MMAE compared with T-MMAE (CALU3 cells [1]): equally cytotoxic
- accumulation in G2/M by pS10 Histone H3 staining compared with cetuximab (EGFR+ tumour xenografts): increased accumulation in G2/M
- effect on IR induced comet tail length (LN229 cells): not appreciably increased
- effect on IR induced comet tail length (CAL-27 cells [2]): significantly increased
- cell cycle profile (G2/M) (CAL-27 cells [3]): G2/M arrest
- effect on IR induced comet tail length (CALU3 cells [4]): increased comet tail length to a similar degree
- tumour growth delay with IR (CAL-27 tumour xenografts; 0.5 nmol day 0, 3 Gy days 1 and 2, P<0.0001 compared with all other groups by day 35): significantly increased tumour growth delay
- Mean Diff. Control vs. treatment + IR (Tukey's multiple comparisons, tumour volume) (CAL-27 tumour xenografts; Fig 4f, day 35, + IR 3 Gy on days 1 and 2, 0.5 nmol cetuximab or C-MMAE, 2 nmol free MMAE on day 0): 893.5
- Mean Diff. Control vs. treatment (Tukey's multiple comparisons, tumour volume) (CAL-27 tumour xenografts; Fig 4f, day 35, no IR, 0.5 nmol cetuximab or C-MMAE, 2 nmol free MMAE on day 0): 646.7
- Mean Diff. Control vs. treatment + IR (Tukey's multiple comparisons, tumour volume) (CAL-27 tumour xenografts; Fig 4g, day 28, + IR 3 Gy on days 1, 2): 456.9
- Mean Diff. Control vs. treatment (Tukey's multiple comparisons, tumour volume) (CAL-27 tumour xenografts; Fig 4g, day 28, no IR): 347.3
- tumour size compared with co-administered cetuximab and free MMAE (CAL-27 tumour xenografts; irradiated groups, P<0.05 by day 28): significantly smaller tumours
- cell surface binding (CAL-27 cells [5]): dose-dependent manner
- persistence in murine xenografts (Cy5 signal) (EGFR expressing tumours): up to 72 h
- surviving fraction following 2 Gy (SF2) (CAL-27 cells [6]): decreased
- cell cycle profile (G2/M) (OE19 cells [7]): did not influence the cell cycle profile

Substance: T-MMAE: monomethyl auristatin E conjugated to trastuzumab via maleimidocaproyl-valine-citrulline-PABA linker, Cy5-labelled, ∼3.2 MMAE per antibody
- cytotoxicity of C-MMAE compared with T-MMAE (CALU3 cells [1]): equally cytotoxic
- effect on IR induced comet tail length (OE19 cells [8]): further increased comet tail length
- pharmacokinetics, loss of Cy5 fluorescence in the blood [9]: comparable to that of similar Cy5-labelled antibody alone
- tumour Cy5 signal accumulation (OE19 tumours [10]): greater Cy5 signal accumulation within tumours compared with C-MMAE
- effect on IR induced comet tail length (CALU3 cells [4]): increased comet tail length to a similar degree
- cell surface binding (CAL-27 cells [5]): not
- slowing of tumour growth compared with control or trastuzumab (OE19 tumour xenografts): equally efficacious in slowing tumour growth
- pS10 of Histone H3 in tumours (OE19 tumours [11]): increased pS10 of Histone H3 in tumours
- cell surface binding [12]: dose-dependent binding
